Measured values published in PubChem BioAssay AID489022 (Sanford-Burnham Center for Chemical Genomics, 2010).

Tested on: HEK-293T NF-kB luciferase reporter, luminescence counterscreen
Test: NF-kB reporter suppression in HEK-293T cells – luminescence, B-cell screen hits, counter-screen for BCR NF-kB inhibitor project, dose response (AID 489022)

`CNC(=O)c1cc(Oc2ccc(NC(=O)Nc3ccc(Cl)c(C(F)(F)F)c3)cc2)ccn1` showed an IC50 of 3.42 µM.
